Experimental data reported in ChEMBL document CHEMBL1143499, “Fused pyrimidine based inhibitors of phosphodiesterase 7 (PDE7): synthesis and initial structure-activity relationships” (Bioorg Med Chem Lett, 2005).

Protein sequences, listed by entry. Tags and fused reporters are not part of them.
UniProt O00408, whole entry: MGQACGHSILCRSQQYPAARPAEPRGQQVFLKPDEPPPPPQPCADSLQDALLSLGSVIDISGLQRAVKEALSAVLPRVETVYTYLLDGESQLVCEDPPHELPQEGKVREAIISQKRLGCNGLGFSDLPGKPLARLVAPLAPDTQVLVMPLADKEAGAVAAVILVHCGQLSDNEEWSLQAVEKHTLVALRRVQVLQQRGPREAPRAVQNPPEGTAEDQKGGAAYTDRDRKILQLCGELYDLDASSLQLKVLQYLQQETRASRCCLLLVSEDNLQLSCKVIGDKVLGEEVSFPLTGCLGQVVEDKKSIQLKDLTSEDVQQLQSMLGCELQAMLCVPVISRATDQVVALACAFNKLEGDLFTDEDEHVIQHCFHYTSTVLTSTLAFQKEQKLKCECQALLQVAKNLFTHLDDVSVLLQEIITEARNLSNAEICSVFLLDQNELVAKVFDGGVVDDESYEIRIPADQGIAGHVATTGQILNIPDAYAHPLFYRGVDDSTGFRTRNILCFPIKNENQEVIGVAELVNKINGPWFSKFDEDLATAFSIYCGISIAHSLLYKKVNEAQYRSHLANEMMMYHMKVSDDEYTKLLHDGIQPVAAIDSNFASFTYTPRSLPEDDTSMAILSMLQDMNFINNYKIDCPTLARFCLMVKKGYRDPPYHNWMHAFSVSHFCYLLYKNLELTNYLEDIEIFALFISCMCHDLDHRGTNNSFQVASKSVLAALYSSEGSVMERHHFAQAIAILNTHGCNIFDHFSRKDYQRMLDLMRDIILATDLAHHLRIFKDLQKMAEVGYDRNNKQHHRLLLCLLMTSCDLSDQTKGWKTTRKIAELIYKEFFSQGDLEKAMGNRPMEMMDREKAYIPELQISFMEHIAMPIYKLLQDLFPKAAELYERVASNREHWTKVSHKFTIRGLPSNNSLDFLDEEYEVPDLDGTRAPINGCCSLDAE

Key:
[1] = Relative binding to Phosphodiesterase 1 and Phosphodiesterase 7, ratio of IC50
[2] = Relative binding to Phosphodiesterase 2 and Phosphodiesterase 7, ratio of IC50
[3] = Relative binding to Phosphodiesterase 3 and Phosphodiesterase 7, ratio of IC50
[4] = Relative binding to Phosphodiesterase 4 and Phosphodiesterase 7, ratio of IC50
[5] = Relative binding to Phosphodiesterase 5 and Phosphodiesterase 7, ratio of IC50
[6] = biological target: cGMP-dependent 3',5'-cyclic phosphodiesterase (Homo sapiens, UniProt O00408); test: Inhibition of Phosphodiesterase 2

| Ratio [1] | Ratio [2] | Ratio [3] | Ratio [4] | Ratio [5] | IC50 [6] [µM] | Compound |
| --- | --- | --- | --- | --- | --- | --- |
| 86 | 86 | 270 | 50 | 1 | – | CCOC(=O)c1sc(Nc2nc(NCc3ccc(S(N)(=O)=O)cc3)c3c(ncn3CC)n2)nc1C |
| – | – | – | – | – | > 10 | CCCc1nn(C)c2c(=O)[nH]c(-c3cc(S(=O)(=O)N4CCN(C)CC4)ccc3OCC)nc12 |
